# scFv variants of Ab-14 (light chain) against a SARS-CoV-2 spike peptide

Binding partner: SARS-CoV-2 spike HR2 peptide, sequence PDVDLGDISGINAS.

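In library AAYL50, one, two or three CDR residues were substituted; doubles and triples were drawn at random. The assay is AlphaSeq: two haploid yeast populations carry antibody and antigen on their surface. The frequency of each diploid, read from paired DNA barcodes, reflects how well the two displayed proteins bind. Scores were corrected for input abundance and mapped to Kd with protein pairs of known affinity run in the same pool. The assay was run in three technical replicates.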

The variants keep the heavy chain, the linker and the frameworks of Ab-14 (scFv order VH, a 15-residue (Gly4Ser)3 linker, VL).
VH: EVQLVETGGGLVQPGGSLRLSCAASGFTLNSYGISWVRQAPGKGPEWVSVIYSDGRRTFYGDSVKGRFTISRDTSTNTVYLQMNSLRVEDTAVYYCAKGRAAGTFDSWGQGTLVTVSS
VL: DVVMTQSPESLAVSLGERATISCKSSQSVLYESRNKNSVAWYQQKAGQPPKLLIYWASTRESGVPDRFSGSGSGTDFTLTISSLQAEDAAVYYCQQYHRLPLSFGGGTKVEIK

The parent's light chain CDRs are KSSQSVLYESRNKNSVA, WASTRES, QQYHRLPLS; each variant's own CDRs replace them letter for letter.
Values are log10 of the apparent Kd in nM; lower means stronger binding.
"n.d." marks a missing value. The strain was present, yet no cells mated with the target were sequenced in that replicate, which points to weak or no binding.
Empty control strains, which show no peptide, gave a signal in 18% of pairings with library AAYL50; the median was 4.19 and 95% of these signals were weaker than 2.99. No background was subtracted.

CDR-L1,CDR-L2,CDR-L3,"log10 Kd, replicates"
KSSQNVLYESRNKNSVA,CASTRES,NQYHRLPLS,n.d. n.d. n.d.
KSSVSILYESRNKNSVA,WASTRES,QQYHFLPLS,3.78 3.05 3.77
KSSQSVVYVSTNKNSVA,WASTRES,QQYHRLPLS,1.20 1.46 1.21
KSSQTVLYEMRNKNSVA,WASTRES,QQYHRLPLS,n.d. 2.85 n.d.
KSSQSVLYESRNKNSVA,AASTREI,QQYHRLPLS,2.41 n.d. n.d.
KSSQSVLYESRNKNSVA,WAHTRES,QQFHRLKLS,n.d. 3.08 4.40
KSSQSLLYCSRNKNSGA,WASTRES,QQYHRLPLS,n.d. 3.95 5.19
KSSQRVLYESRNKNSVA,WASTRES,QQYHALPLC,1.72 1.88 1.86
KSSQSVLYYQRNKNSVA,WASTRES,QQYHCLPLS,2.06 1.90 2.30
KSSQSVLYESRNKLSVA,WASTRES,QQTLRLPLS,n.d. 3.40 n.d.
KSSQSMLYESRNKNIVA,WASTRES,QQYHALPLS,n.d. n.d. n.d.
KFSQSVLYESRNKNSVA,WASTMES,QQYHLLPLS,1.88 1.81 1.77
KSSQSVLYESRNLNSVA,WASTRIS,QQYHRLELS,0.71 0.84 0.90
KSSQSWLYESENKNLVA,WASTRES,QQYHRLPLS,3.87 2.70 3.22
KSSQGFLYESRNWNSVA,WASTRES,QQYHRLPLS,0.91 0.67 1.10
KSSQSVLYGSRNKNSVA,WASTRES,QLYHALPLS,1.64 1.66 1.68
PSSQSVLYESRNKNSGA,WASTRER,QQYHRLPLS,3.35 3.73 2.89
KSSQNVLYESRNKNSVA,WASTRES,QCYHRLPLS,1.51 1.44 1.40
KTSQSVLYECRNKNSVA,WASTRES,QQYHRLPMS,3.51 3.08 4.01
QSSQSVLYESRNKNSVA,WASTRES,QQYHRYPLS,3.03 2.82 3.70
KSSQSVLYELRNKNSVA,WISTRES,QQYHRLPGS,n.d. 2.88 4.32
ISSQSVLYESRNKNSVN,WASTREL,QQYHRLPLS,n.d. n.d. 5.36
KSSLSVLYLSRNKNSVA,WASTRES,QQYHRQPLS,2.21 1.95 1.93
WASQSVLYESRNKNSVA,WASTRKS,QQYHRLPLS,n.d. n.d. 3.80
KSSQSVLYASRNKNSVA,WASTRWS,QQYHRLPNS,n.d. n.d. n.d.
KSSQSVLYESRNKVSVA,HANTRES,QQYHRLPLS,1.45 1.42 1.58
KSSQSHLYESRNKNSVA,DASTRES,QRYHRLPLS,-0.10 0.26 0.03
KSSWSVLYESRNKNVVA,IASTRES,QQYHRLPLS,n.d. n.d. n.d.
KSSSSWLYESRNKNSVA,WASTRES,WQYHRLPLS,3.51 n.d. n.d.
KSSQSVGYESRNKNSVA,WASTRES,QQYHRLPRS,0.38 0.64 0.60

The opening 5 entries, copied out:

{"CDR-L1": "KSSQNVLYESRNKNSVA", "CDR-L2": "CASTRES", "CDR-L3": "NQYHRLPLS", "log10 Kd, replicates": "n.d. n.d. n.d."}
{"CDR-L1": "KSSVSILYESRNKNSVA", "CDR-L2": "WASTRES", "CDR-L3": "QQYHFLPLS", "log10 Kd, replicates": "3.78 3.05 3.77"}
{"CDR-L1": "KSSQSVVYVSTNKNSVA", "CDR-L2": "WASTRES", "CDR-L3": "QQYHRLPLS", "log10 Kd, replicates": "1.20 1.46 1.21"}
{"CDR-L1": "KSSQTVLYEMRNKNSVA", "CDR-L2": "WASTRES", "CDR-L3": "QQYHRLPLS", "log10 Kd, replicates": "n.d. 2.85 n.d."}
{"CDR-L1": "KSSQSVLYESRNKNSVA", "CDR-L2": "AASTREI", "CDR-L3": "QQYHRLPLS", "log10 Kd, replicates": "2.41 n.d. n.d."}

Values reported by Engelhart et al. 2022, doi:10.1038/s41597-022-01779-4 (FLAb copy).